The values that follow come from patent US20020169157A1, “Selective protein tyrosine phosphatatase inhibitors” (priority 2000, published 2002).

One experiment concerns the target T1, TC-PTP (Homo sapiens, UniProt P17706).
T1 construct: chromatography of TCPTP (amino acid residues 1-283) was on Q-Sepharose-FF
T1 sequence (P17706 1-283): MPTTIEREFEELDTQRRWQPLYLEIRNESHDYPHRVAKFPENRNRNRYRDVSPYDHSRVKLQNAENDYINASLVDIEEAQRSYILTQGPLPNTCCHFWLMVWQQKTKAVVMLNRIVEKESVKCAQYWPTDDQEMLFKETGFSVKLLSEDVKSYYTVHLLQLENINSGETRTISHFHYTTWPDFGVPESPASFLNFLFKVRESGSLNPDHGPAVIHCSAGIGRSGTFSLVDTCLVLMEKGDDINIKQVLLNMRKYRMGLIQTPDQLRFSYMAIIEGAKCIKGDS
Description: Inhibition constant determination, selectivity panel: TCPTP (pNPP hydrolysis). Type of experiment: biochemical. The conditions noted are these: from Kic values of Table 1.

The target in experiment [1] is T2, protein tyrosine phosphatase 1B (PTP1B, amino acid residues 1-321) (Homo sapiens, UniProt P18031).
T2 construct: PTP1B, amino acid residues 1-321; made in house; host or cells: E. coli BL21 (DE3)
T2 sequence (P18031 1-321): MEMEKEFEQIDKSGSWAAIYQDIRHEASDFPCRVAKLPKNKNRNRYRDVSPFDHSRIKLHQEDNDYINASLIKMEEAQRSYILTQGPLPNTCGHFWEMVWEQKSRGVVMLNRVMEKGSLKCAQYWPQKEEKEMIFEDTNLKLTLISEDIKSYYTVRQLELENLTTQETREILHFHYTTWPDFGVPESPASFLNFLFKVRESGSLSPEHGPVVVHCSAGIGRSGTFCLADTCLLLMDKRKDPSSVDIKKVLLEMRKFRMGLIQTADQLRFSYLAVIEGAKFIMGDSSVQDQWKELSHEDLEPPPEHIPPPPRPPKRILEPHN
Description: Inhibition constant determination for protein tyrosine phosphatase 1B (pNPP hydrolysis). The format is biochemical. The conditions noted are these: competitive Ki, pNPP substrate, +/− S.D.; read-out: Phosphatase Inhibition Constants (Kic) PTP1B.

For `CCc1cc(C[C@H](NC(C)=O)C(=O)NCCCCOc2cccc(O)c2C(=O)OC)ccc1N(C(=O)C(=O)O)c1ccccc1C(=O)O` [Example 13, Methyl 2-{4-[(N-acetyl-4-[(carboxycarbonyl)(2-carboxyphenyl)amino]-3-ethylphenylalanyl)amino]butoxy}-6-hydroxybenzoate], on TC-PTP, the “selective for PTP1B over TCPTP” value is listed as “at least 3 fold”. In addition, the Ki in experiment [1] was 16 nM.

On to `CCC(CC(=O)O)N(C(=O)C(=O)O)c1ccc(C[C@H](NC(=O)OC(C)(C)C)C(=O)NCCCCOc2cccc(O)c2C(=O)OC)cc1` (stereo partly drawn) [Example 43, Methyl 2-(4-{[N-(tert-butoxycarbonyl)-4-{(carboxycarbonyl)[1-(carboxymethyl)propyl]amino}-L-phenylalanyl]amino}butoxy)-6-hydroxybenzoate], for which the Ki in experiment [1] turned out to be 1300 nM.
